Values quoted from earlier work as cited in publication PMC10819651 (Molecules, 2024).

Test system: MAO-B
Settings: control of MAO-B inhibition; cited from earlier work

C#CCN(C)[C@H](C)Cc1ccccc1 [Seligiline, selegiline]
Inhibition Type (MAO-B): Inactivator [52]
